Patent publication US9120791B2, “Indolizine compounds, a process for their preparation and pharmaceutical compositions containing them” (LES LABORATOIRES SERVIER, priority 2012, dated 2015)

Amino acid sequences for entries named in this document (tags omitted).
UniProt P10415, whole entry: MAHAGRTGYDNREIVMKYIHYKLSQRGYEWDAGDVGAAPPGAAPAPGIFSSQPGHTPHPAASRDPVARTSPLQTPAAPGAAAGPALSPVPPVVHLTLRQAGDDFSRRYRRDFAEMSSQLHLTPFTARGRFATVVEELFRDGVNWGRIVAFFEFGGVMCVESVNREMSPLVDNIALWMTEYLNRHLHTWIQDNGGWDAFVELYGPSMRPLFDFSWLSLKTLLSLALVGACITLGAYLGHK

Biological target: Bcl-2 protein (Homo sapiens (Human), UniProt P10415)
Assay: Inhibition of Bcl-2 by the fluorescence polarisation technique
Assay type: binding
Description: The fluorescence polarisation tests were carried out on microplates (384 wells). […] After incubation for 2 hours, the fluorescence polarisation is measured.

## O=C(c1cc(-c2cc3c(cc2C(=O)N2Cc4ccccc4C[C@H]2CN2CCOCC2)OCO3)n2ccncc12)N(c1ccc(O)cc1)c1cccc(F)c1 [Example 121, N-(3-Fluorophenyl)-N-(4-hydroxyphenyl)-6-(6-{[(3S)-3-(morpholin-4-ylmethyl)-3,4-dihydroisoquinolin-2(1H)-yl]carbonyl}-1,3-benzodioxol-5-yl)pyrrolo-[1,2-a]pyrazine-8-carboxamide hydrochloride]
  IC50: 34 nM

Counter-ions that a name gives are not always drawn.
